# Results as given in patent US7442776B2, “Cancerous disease modifying antibodies” (priority 1999, dated 2008).
# What was measured:
# Design in all cases: key to the marks not given beside the values
# Conditions in all cases: purified antibody or control, 5 days incubation, calcein; four experiments in triplicate
# [1] = system: MDA-MB-468 (MB-468) breast cancer cell line; assay: Live/Dead cytotoxicity assay
# [2] = system: SW1116 colon cancer cell line
# [3] = system: CCD-27sk non-cancer cell line
substance,measurement,setting,value
"anti-EGFR: positive control antibody C225, IgG1, kappa, 5 microgram/mL, Cedarlane","In Vitro Cytotoxicity, MB-468",[1],+++
same,"In Vitro Cytotoxicity, SW1116",[2],+++
same,"In Vitro Cytotoxicity, CCD 27sk",[3],++
